Laboratory results from US10144746B2 (GLOBAL BLOOD THERAPEUTICS, INC., priority 2015, dated 2018).

Sequences of proteins named here, by UniProt entry; tags and fusion partners are left off. Residues count along the entry.
UniProt P03952, 20-390 partner: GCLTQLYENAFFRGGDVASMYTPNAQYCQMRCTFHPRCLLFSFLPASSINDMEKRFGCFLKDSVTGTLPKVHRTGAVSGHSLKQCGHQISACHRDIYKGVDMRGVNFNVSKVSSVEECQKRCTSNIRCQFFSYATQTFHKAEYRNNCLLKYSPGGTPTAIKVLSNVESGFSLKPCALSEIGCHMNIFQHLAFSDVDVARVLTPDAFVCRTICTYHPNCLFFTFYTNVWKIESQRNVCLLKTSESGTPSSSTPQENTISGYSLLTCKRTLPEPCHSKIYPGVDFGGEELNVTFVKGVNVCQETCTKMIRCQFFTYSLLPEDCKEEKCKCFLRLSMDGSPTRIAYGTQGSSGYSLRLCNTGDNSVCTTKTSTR
UniProt P03952, 391-638: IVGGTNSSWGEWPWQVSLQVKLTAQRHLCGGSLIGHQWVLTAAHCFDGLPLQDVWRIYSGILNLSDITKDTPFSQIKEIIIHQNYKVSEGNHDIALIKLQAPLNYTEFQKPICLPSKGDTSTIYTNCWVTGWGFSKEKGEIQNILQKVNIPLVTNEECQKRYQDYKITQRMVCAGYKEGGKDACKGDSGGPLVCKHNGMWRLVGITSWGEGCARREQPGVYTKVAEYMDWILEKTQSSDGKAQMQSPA

Biological target: Human plasma kallikrein (Homo sapiens (Human), UniProt P03952)
Experiment: In vitro plasma kallikrein inhibition assay (chromogenic substrate D-Pro-Phe-Arg-pNa, absorbance at 405 nm, IC50 determination)
Format: biochemical
Settings: read-out: KLKB1 pIC50 (converted)
Experimental: In Vitro Plasma Kallikrein Inhibition Assay
The chromogenic substrate D-Pro-Phe-Arg-pNa, 2HCl (BIOPHEN CS-31(02) from Hyphen BioMed, Neuville-Sur-oise, France) was dissolved in 5 mL deionized water and stored at 4° C. […] All other chemicals were of analytical grade.
A stock solution of 7 μM in 50% glycerol was stored at −20° C.
Enzyme reactions were conducted in “assay buffer” comprised of 20 mM HEPES at pH 7.4, 150 mM NaCl, 0.1% PEG-8000 and 0.01% Triton X-100.
Both enzyme and substrate were diluted in assay buffer.
Plate measurements were conducted using a SPECTROStar Nano reader (BMG Labtech, San Francisco, Calif., USA). […] We used discrete wavelength, precise, kinetic reads of 15 cycles with a 60 sec cycle time.
Determination of IC50 values
The test compound was dissolved in 100% DMSO. The compounds were serially diluted in DMSO in a 7 point dose response. For the assays, 66.5 μL of protease solution (protease in assay buffer) was added per well followed by the addition of 8.5 μL of compound in 100% DMSO. […] After 30 min. incubation at room temperature on an orbital shaker, the reactions were started by the addition of 10 μL substrate solution (in assay buffer, final assay concentration was 600 uM). After the addition of the substrate solution the final DMSO concentration was 10%. The plate was placed again on the shaker for 5 sec, spun at 2000 rpm for 5 sec and read on the spectrophotometer. […] The IC50 value was calculated from the plot of rate vs. inhibitor concentration by a 4 parameter logistic equation: y=A+((B−A)/([…]))
where y is the rate at the inhibitor concentration, x. A is the minimum y value at the highest inhibitor concentration and B is the y value in the absence of inhibitor, C is the IC50 value and D is the slope factor. The curve fitting was conducted with the non-linear regression routine of the analysis software XLfit (IDBS, version 5.3.1).

IC50 | Compound
1.51 µM | Cc1cc(N)nc(C)c1CNC(=O)c1ccc2c(c1)C1OC2c2cc(Nc3ccn(C)n3)ccc21 (racemic) [Example 52, (1R,8S)-12-cyclopropyl-N-{[5-(N′-methoxycarbamimidoyl)pyridin-2-yl]-methyl}-15-oxatetracyclo[6.6.1.0^2,7.0^9,14]pentadeca-2,4,6,9,11,13-hexaene-4-carboxamide]
7.41 µM | Cc1cc2c(c(Cl)c1CNC(=O)c1ccc3c(c1)C1OC3c3ccc(-c4ccc(F)cc4F)cc31)CNC2 (racemic) [Example 131, (±)-N[(4-chloro-6-methyl-2,3-dihydro-1H-isoindol-5-yl)methyl]-12-(2,4-difluoropheny])-15-oxatetracyclo [6.6.1.0^2,^7.0^9,1^4] pentadeca-2,4,6,9,11,13-hexaene-4-carboxamide]
0.389 µM | Cc1cc(N)nc(C)c1CNC(=O)c1ccc2c(c1)C1OC2c2cc(Br)c(Br)cc21 (racemic) [Example 301, N-[(6-amino-2,4-dimethylpyridin-3-yl)methyl]-11,12-dibromo-15-oxatetracyclo [6.6.1.0^2,^7.0^9,1^4]-pentadeca-2,4,6,9,11,13-hexaene-4-carboxamide]
21.4 µM | Cc1nc(N)nc(C)c1CNC(=O)c1ccc2c(c1)[C@@H]1O[C@H]2c2ccc(-c3ccc(F)cc3F)cc21 (single isomer, unassigned) [Example 182]
1.23 µM | N=C(N)c1cccc(CNC(=O)c2ccc3c(c2)[C@@H]2O[C@H]3c3ccc(-c4ccccc4F)cc32)c1 (single isomer, unassigned) [Example 200]
1.23 µM | Cc1cc(N)nc(C)c1CNC(=O)c1ccc2c(c1)[C@@H]1O[C@H]2c2ccc(N(C)C(=O)c3ccccc3)cc21 (single isomer, unassigned) [Example 243]
10 µM | Nc1cccc(NC(=O)c2ccc3c(c2)[C@@H]2O[C@H]3c3ccc(-c4ccc(F)cc4F)cc32)c1 (single isomer, unassigned) [Example 287]
100 µM | Nc1ccc(NC(=O)c2ccc3c(c2)[C@@H]2O[C@H]3c3ccc(-c4ccc(F)cc4F)cc32)cc1 (single isomer, unassigned) [Example 288]
0.001 µM | N=C(N)c1ccc(CNC(=O)c2ccc3c(c2)[C@@H]2O[C@H]3c3ccc(-c4ccc(F)cc4F)cc32)c(F)c1 (single isomer, unassigned) [Example 291]
0.0302 µM | N=C(N)c1cc(F)c(CNC(=O)c2ccc3c(c2)[C@@H]2O[C@H]3c3ccc(-n4nccn4)cc32)c(F)c1 (single isomer, unassigned) [Example 297]
3.16 µM | Cc1cc2ccnc(N)c2cc1CNC(=O)c1ccc2c(c1)[C@@H]1O[C@H]2c2ccc(-c3ccccc3F)cc21 (single isomer, unassigned) [Example 300]
10 µM | Nc1ccc(NC(=O)c2ccc3c(c2)[C@@H]2O[C@H]3c3ccc(-c4ccc(F)cc4F)cc32)cn1 (single isomer, unassigned) [Example 304]
100 µM | Nc1ccnc(NC(=O)c2ccc3c(c2)[C@@H]2O[C@H]3c3ccc(-c4ccc(F)cc4F)cc32)c1 (single isomer, unassigned) [Example 309]
47.9 µM | O=C(NCC1CCNCC1)c1ccc2c(c1)[C@@H]1O[C@H]2c2ccc(-c3ccc(F)cc3F)cc21 (single isomer, unassigned) [Example 313]
33.9 µM | O=C(NC1CCNCC1)c1ccc2c(c1)[C@@H]1O[C@H]2c2ccc(-c3ccc(F)cc3F)cc21 (single isomer, unassigned) [Example 345]
